## CycPeptMPDB entries from one study

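Lipid, pH, incubation time, direction and concentration are not recorded in the data file. The list need not hold all peptides of the study. Peptides that the database sets to -10, its floor, are left out.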

PAMPA is the parallel artificial membrane permeability assay, which has no cells and reads passive diffusion. Permeability is in 10^-6 cm/s, converted from the database's log10 values; higher is more permeable.

| structure (SMILES) | PAMPA (10^-6 cm/s) |
|---|---|
| CC(C)C[C@@H]1NC(=O)CN(Cc2ccccc2)C(=O)[C@@H](C)N(C)C(=O)[C@H]2CCCN2C(=O)[C@H](Cc2ccccc2)NC(=O)CN(Cc2ccccc2)C(=O)[C@H]2CCCN2C1=O | 0.28 |
| CC(C)C[C@@H]1NC(=O)[C@H](C)NC(=O)[C@@H]2CCCN2C(=O)[C@H](Cc2ccccc2)NC(=O)[C@H](CC(C)C)NC(=O)[C@@H]2CCCN2C(=O)[C@H](CC(C)C)NC1=O | 0.055 |
| CC(C)C[C@@H]1NC(=O)[C@H](C)NC(=O)[C@H](Cc2ccccc2)NC(=O)[C@@H](CC(C)C)N(C)C(=O)[C@H]2CCCN2C(=O)[C@H](CC(C)C)NC1=O | 2.1 |
| CC(C)C[C@H]1NC(=O)[C@H](CC(C)C)N(C)C(=O)C[C@H](Cc2ccccc2)NC(=O)[C@H](Cc2ccccc2)NC(=O)CN(Cc2ccccc2)C(=O)[C@@H]2CCCN2C1=O | 3.3 |
| CC(C)C[C@H]1C(=O)N[C@@H](Cc2ccccc2)CC(=O)N2CCC[C@H]2C(=O)N(C)[C@@H](CC(C)C)C(=O)N[C@@H](Cc2ccccc2)C(=O)N2CCC[C@H]2C(=O)N[C@H](C)C(=O)N1C | 3.2 |
| CC(C)C[C@@H]1NC(=O)[C@@H]2CCCN2C(=O)CN(Cc2ccccc2)C(=O)[C@@H](CC(C)C)NC(=O)[C@H](C)NC(=O)[C@@H]2CCCN2C(=O)[C@H](Cc2ccccc2)NC1=O | 0.52 |
| CCCN1CC(=O)N[C@@H](CC(C)C)C(=O)N[C@@H](Cc2ccccc2)CC(=O)N2CCC[C@@H]2C(=O)N(C)[C@@H](CC(C)C)C(=O)N[C@@H](Cc2ccccc2)C(=O)N2CCC[C@@H]2C1=O | 2.3 |
| CC(C)C[C@@H]1C(=O)N[C@@H](Cc2ccccc2)C(=O)N[C@@H](Cc2ccccc2)CC(=O)N[C@H](CC(C)C)C(=O)N(C)[C@@H](CC(C)C)C(=O)N2CCC[C@@H]2C(=O)N1C | 4.5 |
| CC(C)C[C@@H]1C(=O)N2CCC[C@H]2C(=O)N[C@H](CC(C)C)C(=O)N[C@@H](Cc2ccccc2)C(=O)N2CCC[C@H]2C(=O)N(C)[C@H](C)C(=O)N(Cc2ccccc2)CC(=O)N1C | 2.8 |
| CC(C)C[C@@H]1NC(=O)[C@@H]2CCCN2C(=O)CN(Cc2ccccc2)C(=O)[C@@H](CC(C)C)NC(=O)[C@@H](C)NC(=O)[C@H](Cc2ccccc2)NC1=O | 0.62 |
| CC(C)C[C@@H]1NC(=O)[C@@H](C)NC(=O)[C@H](Cc2ccccc2)NC(=O)CN(Cc2ccccc2)C(=O)[C@@H]2CCCN2C(=O)CN(Cc2ccccc2)C1=O | 0.6 |
| CC(C)C[C@@H]1NC(=O)C[C@H](Cc2ccccc2)NC(=O)[C@H]2CCCN2C(=O)[C@H](Cc2ccccc2)NC(=O)[C@H](CC(C)C)N(C)C(=O)[C@@H]2CCCN2C(=O)[C@H](CC(C)C)NC1=O | 1.8 |
| CC(C)C[C@@H]1C(=O)N[C@@H](Cc2ccccc2)C(=O)N2CCC[C@@H]2C(=O)N[C@@H](Cc2ccccc2)CC(=O)N(C)[C@@H](CC(C)C)C(=O)N(C)[C@H](CC(C)C)C(=O)N2CCC[C@@H]2C(=O)N1C | 3.5 |
| CCCN1CC(=O)N(C)[C@H](CC(C)C)C(=O)N(Cc2ccccc2)CC(=O)N2CCC[C@H]2C(=O)N(C)[C@@H](CC(C)C)C(=O)N[C@@H](Cc2ccccc2)C1=O | 7.2 |
| CC(C)C[C@H]1NC(=O)[C@H](C)N(C)C(=O)[C@H]2CCCN2C(=O)[C@H](Cc2ccccc2)NC(=O)[C@H](CC(C)C)N(C)C(=O)[C@@H]2CCCN2C(=O)C[C@H](Cc2ccccc2)NC1=O | 2.3 |
| CC(C)C[C@@H]1NC(=O)[C@@H](C)N(C)C(=O)[C@@H]2CCCN2C(=O)[C@H](Cc2ccccc2)NC(=O)[C@H](CC(C)C)N(C)C(=O)[C@H]2CCCN2C(=O)[C@@H](CC(C)C)NC1=O | 6.8 |

The 2 highest values of PAMPA among the entries above:

structure (SMILES)	PAMPA (10^-6 cm/s)
CCCN1CC(=O)N(C)[C@H](CC(C)C)C(=O)N(Cc2ccccc2)CC(=O)N2CCC[C@H]2C(=O)N(C)[C@@H](CC(C)C)C(=O)N[C@@H](Cc2ccccc2)C1=O	7.2
CC(C)C[C@@H]1NC(=O)[C@@H](C)N(C)C(=O)[C@@H]2CCCN2C(=O)[C@H](Cc2ccccc2)NC(=O)[C@H](CC(C)C)N(C)C(=O)[C@H]2CCCN2C(=O)[C@@H](CC(C)C)NC1=O	6.8

Data: CycPeptMPDB; original report Townsend et al. 2020, doi:10.26434/chemrxiv.13335941.v1.